# From PubChem BioAssay AID448 (National Center for Advancing Translational Sciences (NCATS), 2006)
# This list holds what a sample rich in hits left over. The source made the active and inactive calls. Calls come from the whole dose curve.
# System: Schistosoma mansoni peroxiredoxin 2 (Prx2)
# Assay: Schistosoma Mansoni Peroxiredoxins (Prx2)
# Settings: S. mansoni Prx2 activity coupled to TGR/GSH (TGR is thioredoxin glutathione reductase), NADPH fluorescence loss, qHTS
# Excerpt: NIH Molecular Libraries Screening Centers Network [MLSCN]
# NIH Chemical Genomics Center [NCGC]
# David Williams [Illinois State University]
# Schistosoma mansoni, a causative agent of schistosomiasis, resides in the bloodstream of their host up to 30 years without being eliminated by the host immune attack. One proposed survival mechanism is the production of an antioxidant "firewall" that neutralizes the oxidative assault of the host's immune attack. Schistosoma mansoni peroxiredoxins (Prx) are important parasite antioxidant proteins that play a crucial role in redox balance mechanisms. […] First, the proteins are essential for the parasite survival. […] Third, the protein(s) is amenable for study at the molecular level and can be produced in bacteria in large quantities, in soluble and active form. […] A decrease in the fluorescence intensity of NADPH was used to measure the enzyme activity. […]
# Three uL of reagents were dispensed to 1536-well Greiner black plates. […] The plate was transferred to ViewLux (Perkin-Elmer) High-throughput CCD imager where kinetic measurements (every 30 sec, for a total of 8 min) of NADPH fluorescence were taken using 365 nm excitation/450 nm emission filter set. […]
# Potency is the fitted concentration of half-maximal effect.
row,Compound,Potency
1,CCOC(=O)N1CCC(=C2c3ccc(Cl)cc3CCc3cccnc32)CC1,inactive: > 57 µM
2,CCN(CC)CC(=O)Nc1c(C)cccc1C,inactive: > 57 µM
